Measured values published in US20090143391A1, “Aryl and heteroaryl fused imidazo [1,5-a] pyrazines as inhibitors of phosphodiesterase 10” (priority 2007, published 2009).

By UniProt entry, the sequences of proteins in these tests, tags left out. Residues count along the entry.
UniProt A0A287B941, 1-1069: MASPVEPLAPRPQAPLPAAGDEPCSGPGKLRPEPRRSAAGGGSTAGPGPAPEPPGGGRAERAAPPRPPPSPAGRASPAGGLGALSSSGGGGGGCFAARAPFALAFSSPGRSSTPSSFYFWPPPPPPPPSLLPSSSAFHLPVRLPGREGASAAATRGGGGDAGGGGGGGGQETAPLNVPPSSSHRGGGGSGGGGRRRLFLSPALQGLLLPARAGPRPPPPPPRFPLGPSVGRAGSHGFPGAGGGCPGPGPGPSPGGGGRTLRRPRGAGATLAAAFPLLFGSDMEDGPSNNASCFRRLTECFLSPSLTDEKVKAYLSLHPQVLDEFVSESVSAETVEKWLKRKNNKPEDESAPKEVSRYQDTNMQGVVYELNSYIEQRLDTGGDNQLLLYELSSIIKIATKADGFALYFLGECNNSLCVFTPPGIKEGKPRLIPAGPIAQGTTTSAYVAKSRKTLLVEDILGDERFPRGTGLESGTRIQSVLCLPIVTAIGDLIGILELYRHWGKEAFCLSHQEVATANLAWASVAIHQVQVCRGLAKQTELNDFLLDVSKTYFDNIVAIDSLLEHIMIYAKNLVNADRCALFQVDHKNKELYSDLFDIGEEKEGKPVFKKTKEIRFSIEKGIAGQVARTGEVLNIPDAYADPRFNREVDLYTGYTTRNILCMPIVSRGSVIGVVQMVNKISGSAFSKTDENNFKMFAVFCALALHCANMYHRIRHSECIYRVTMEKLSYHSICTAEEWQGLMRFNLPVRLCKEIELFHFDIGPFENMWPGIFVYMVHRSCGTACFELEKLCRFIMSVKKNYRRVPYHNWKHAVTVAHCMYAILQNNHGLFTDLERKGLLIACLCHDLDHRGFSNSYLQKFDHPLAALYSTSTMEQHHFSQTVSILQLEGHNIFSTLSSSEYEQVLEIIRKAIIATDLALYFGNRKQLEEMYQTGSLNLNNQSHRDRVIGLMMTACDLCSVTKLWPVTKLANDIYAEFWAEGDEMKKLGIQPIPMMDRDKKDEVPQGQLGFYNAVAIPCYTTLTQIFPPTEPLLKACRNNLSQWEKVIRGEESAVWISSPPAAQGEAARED
UniProt Q9Y233, 1-779 isoform 1: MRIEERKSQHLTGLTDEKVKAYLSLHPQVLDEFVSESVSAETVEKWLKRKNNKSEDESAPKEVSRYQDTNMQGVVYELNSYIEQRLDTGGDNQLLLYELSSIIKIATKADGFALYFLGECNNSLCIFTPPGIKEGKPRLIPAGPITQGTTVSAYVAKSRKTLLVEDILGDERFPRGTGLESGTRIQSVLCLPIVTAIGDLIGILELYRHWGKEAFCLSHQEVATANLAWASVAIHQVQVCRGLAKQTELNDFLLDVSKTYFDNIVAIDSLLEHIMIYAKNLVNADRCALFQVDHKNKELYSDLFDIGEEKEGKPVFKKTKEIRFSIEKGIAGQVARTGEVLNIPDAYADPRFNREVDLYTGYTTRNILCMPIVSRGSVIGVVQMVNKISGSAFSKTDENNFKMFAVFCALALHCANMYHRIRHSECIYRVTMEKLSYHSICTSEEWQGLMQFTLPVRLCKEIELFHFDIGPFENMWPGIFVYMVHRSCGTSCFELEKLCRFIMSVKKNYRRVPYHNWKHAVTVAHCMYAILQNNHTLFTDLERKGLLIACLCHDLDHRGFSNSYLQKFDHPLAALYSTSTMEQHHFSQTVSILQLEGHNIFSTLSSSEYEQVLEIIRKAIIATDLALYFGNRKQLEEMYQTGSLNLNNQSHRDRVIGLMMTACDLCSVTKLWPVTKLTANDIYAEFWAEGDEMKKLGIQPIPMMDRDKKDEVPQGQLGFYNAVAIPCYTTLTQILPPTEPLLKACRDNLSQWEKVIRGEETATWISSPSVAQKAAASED

Experiments:
[1] = molecular target: PDE10 from pig striatum (Sus scrofa, UniProt A0A287B941); test: Inhibition of PDE10 from pig striatum (Method A / Method B), [3H]-cAMP SPA; type: biochemical; conditions: read-out: PDE10 inhibition IC50 PDE10 pig
Method: Striatum from male Wistar rats (180-200 g), male hybrid pigs (150 kg) and male guinea pigs (CRL (HA), 500 g) respectively were collected and frozen at −70° C. […] The supernatant is called the cytosolic fraction and was removed and stored on ice. The pellet was resuspended in the same buffer, but containing 1% Triton and incubated for 45 min at 4° C. Both fractions were independently applied onto a 5 ml Hi Trap™ QHP column at the Äkta-FPLC. After washing the columns the bound PDE protein was eluted with an increasing sodium chloride gradient (0 mM-500 mM sodium chloride) in 50 mM Tris/Mg-buffer at 4° C. for the cytosolic fraction and in the presence of 1% Triton for the membrane fraction. […] The fractions with PDE10-activity were pooled and frozen in aliquots until use at −20° C. PDE10 activity was determined in a one step procedure in microtiter plates. The reaction mixture of 100 μl contained 50 mM Tris-HCl/5 mM MgCl2 buffer (pH=7.4) (Sigma, Deisenhofen, Germany; Merck, Darmstadt, Germany) 0.1 μM [^3H]-cAMP (Amersham, Buckinghamshire, UK) and the enzyme. Nonspecific activity was tested without the enzyme. The reaction was initiated by addition of the substrate solution and was carried out at 37 ° C. for 30 minutes. Enzymatic activity was stopped by addition of 25 μl YSi-SPA-beads (Amersham-Pharmacia). One hour later the mixture was measured in a liquid scintillation counter for microtiter plates (Microbeta Trilux). To pipette the incubation mixture a robot Biomek (Fa. Beckman) is used. […] For the test with cGMP 500 nM of this substrate was used. The optimal amount of enzyme in the assay has been determined and optimised for each enzyme preparation and substrate separately before using the enzyme in compound testing. For determination of IC50 values the Hill-plot, 2-parameter-model, was used. […] Striatum from male hybrid pigs (150 kg) were collected and frozen at −70° C. […] The supernatant was removed and the pellet was resuspended in the same buffer, but containing 1% Triton and incubated for 45 min at 4° C. The membrane fraction was applied onto a 5 ml Hi Trap™ QHP column at the Äkta-FPLC. After washing the column the bound PDE protein was eluted with an increasing sodium chloride gradient (0 mM-500 mM sodium chloride) in 50 mM Tris/Mg-buffer at 4° C. in the presence of 1% Triton. […] The fractions with PDE10-activity were pooled and frozen in aliquots until use at −20° C. PDE10 activity was determined in a one step procedure in microtiterplates. The reaction mixture of 100 μl contained 50 mM Tris-HCl/5 mM MgCl2 buffer (pH=7.4) (Sigma, Deisenhofen, Germany; Merck, Darmstadt, Germany) 0.1 μM [3H]-cAMP (Amersham, Buckinghamshire, UK) and the enzyme. Nonspecific activity was tested without the enzyme. The reaction was initiated by addition of the substrate solution and was carried out at 37° C. for 30 minutes. Enzymatic activity was stopped by addition of 25 μl YSi-SPA-beads (Amersham-Pharmacia). One hour later the mixture was measured in a liquid scintillation counter for microtiterplates (Microbeta Trilux). To pipette the incubation mixture a robot Biomek (Fa. Beckman) is used. […] The optimal amount of enzyme in the assay has been determined and optimised for each enzyme preparation before using the enzyme in compound testing. For determination of IC50 values the Hill-plot, 2-parameter-model, was used.

[2] = molecular target: human recombinant PDE10A (Homo sapiens, UniProt Q9Y233); test: Inhibition of human recombinant PDE10A (Method B), [3H]-cAMP SPA; type: biochemical; conditions: read-out: PDE10 inhibition IC50 PDE10A human

Q: How did the IC50 [1] turn out when CCCc1nc(C)c2c(Cl)nc3c(OCC(F)(F)F)cc(OCC(F)(F)F)cc3n12 was run?
A: > 100 nM

Q: What about the IC50 [2] of the same compound?
A: > 100 nM

Q: CCCc1nc(C)c2c(Cl)nc3ccccc3n12 was tested. Which IC50 [1] did it give?
A: 10 to 100 nM

Q: With CCc1nc(C)c2c(Cl)nc3ccc(F)cc3n12 as the compound, how does the IC50 [1] read?
A: 10 to 100 nM

Q: With CCCc1nc(C)c2c(Cl)nc3ccc(N4CCCCC4)cc3n12 as the compound, how does the IC50 [1] read?
A: 10 to 100 nM

Q: For Cc1nc(-c2ccccc2Cl)n2c1c(Cl)nc1ccc(F)cc12, which IC50 [1] is on record?
A: < 10 nM
